Reference: patent US6521751B1, “Recombinant nucleic acid sequences and methods for determining both genotoxicity and mutagenicity of a sample and the kinetics of the genotoxicity” (Vlaamse Instelling voor Technologisch Onderzoek (VITO), priority 1998, dated 2003)

How the values were obtained:
[1] = test system: S. typhimurium TA98 containing pMOL1068; experiment: Luminescence genotoxicity test, recN2-4 lux fusion
[2] = test system: S. typhimurium TA104 containing pMOL1068; experiment: Luminescence genotoxicity test, recN2-4 lux fusion
[3] = test system: S. typhimurium TA104 containing pMOL1067; experiment: Luminescence genotoxicity test, recN1-3 lux fusion
[4] = test system: S. typhimurium TA98 containing pMOL1067; experiment: Luminescence genotoxicity test, recN1-3 lux fusion
[5] = test system: S. typhimurium TA104 containing pMOL890; experiment: Luminescence genotoxicity test, sfiA-lux fusion
[6] = test system: S. typhimurium TA98 containing pMOL890; experiment: Luminescence genotoxicity test, sfiA-lux fusion
[7] = test system: S. typhimurium; details: cited from earlier work; for MINIMAL DETECTED CONCENTRATION (MDC): AMES, literature values, pos/neg where MDC could not be calculated; for AMES (result): Ames test, Table 3
[8] = test system: S. typhimurium TA104 containing pMOL1066; experiment: Luminescence genotoxicity test, recN1-2 lux fusion
[9] = test system: E. coli (sfiA-lacZ); details: SOS chromotest, cited from earlier work; for SOS (result): Table 3; for MINIMAL DETECTED CONCENTRATION (MDC): literature values
[10] = test system: S. typhimurium TA104 containing pMOL1069; experiment: Luminescence genotoxicity test, recN3-4 lux fusion
[11] = test system: TA 98 and TA104 strains containing pMOL1067 or pMOL1068; experiment: Genotoxicity tests with hybrid lux strains, final outcome (Table 3)

Row | Compound | MINIMAL DETECTED CONCENTRATION (MDC) [1] | MINIMAL DETECTED CONCENTRATION (MDC) [2] | MINIMAL DETECTED CONCENTRATION (MDC) [3] | MINIMAL DETECTED CONCENTRATION (MDC) [4] | MINIMAL DETECTED CONCENTRATION (MDC) [5] | MINIMAL DETECTED CONCENTRATION (MDC) [6] | MINIMAL DETECTED CONCENTRATION (MDC) [7] | AMES (result) [7] | MINIMAL DETECTED CONCENTRATION (MDC) [8] | SOS (result) [9] | MINIMAL DETECTED CONCENTRATION (MDC) [9] | MINIMAL DETECTED CONCENTRATION (MDC) [10] | OUTCOME (genotoxicity, final outcome) [11]
1 | K2Cr2O7 | 1.4 nmol/assay | 1.4 nmol/assay | 5.4 nmol/assay | 5.4 nmol/assay | 2.7 nmol/assay | 2.7 nmol/assay | 91 nmol/assay | pos | 21.8 nmol/assay | pos | 136 nmol/assay | 10.9 nmol/assay | pos
2 | O=C1c2cc([N+](=O)[O-])cc([N+](=O)[O-])c2-c2c1cc([N+](=O)[O-])cc2[N+](=O)[O-] | 0.011 nmol/assay | 0.022 nmol/assay | 0.011 nmol/assay | 0.022 nmol/assay | 0.011 nmol/assay | 0.056 nmol/assay | 0.001 nmol/assay | pos | 0.022 nmol/assay | pos | 0.24 nmol/assay | 0.011 nmol/assay | pos
3 | SeO2 | – | – | – | – | – | – | – | pos | – | – | – | – | pos
